Measured values as given in patent US7208282B2, “Rhesus monkey, dog and ferret melanin-concentrating hormone type 2 receptor” (priority 2001, dated 2007).

By UniProt entry, the sequences of proteins in these tests, tags left out. Where a name states a change or a piece, a line headed by the entry shows the natural chain unless it says otherwise.
UniProt Q8MJ88: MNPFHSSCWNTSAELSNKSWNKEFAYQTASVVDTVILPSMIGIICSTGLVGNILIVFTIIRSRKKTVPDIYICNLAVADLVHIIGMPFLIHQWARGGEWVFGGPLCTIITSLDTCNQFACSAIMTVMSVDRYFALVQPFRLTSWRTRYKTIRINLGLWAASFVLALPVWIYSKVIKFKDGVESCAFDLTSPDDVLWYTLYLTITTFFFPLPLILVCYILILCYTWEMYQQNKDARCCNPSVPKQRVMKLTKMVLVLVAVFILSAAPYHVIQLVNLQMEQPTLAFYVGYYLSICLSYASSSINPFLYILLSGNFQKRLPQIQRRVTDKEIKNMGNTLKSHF
UniProt Q969V1: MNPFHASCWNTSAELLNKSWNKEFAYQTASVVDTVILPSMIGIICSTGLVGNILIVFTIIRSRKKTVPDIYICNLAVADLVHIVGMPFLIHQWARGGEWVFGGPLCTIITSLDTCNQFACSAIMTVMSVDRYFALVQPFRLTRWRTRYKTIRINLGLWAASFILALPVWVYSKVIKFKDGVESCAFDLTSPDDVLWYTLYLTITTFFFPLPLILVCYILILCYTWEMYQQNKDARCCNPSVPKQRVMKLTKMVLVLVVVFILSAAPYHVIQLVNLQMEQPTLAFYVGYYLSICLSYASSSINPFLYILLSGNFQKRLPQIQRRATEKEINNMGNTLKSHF

Legend:
rhesus MCH-2R [1] = molecular target: T1, rhesus MCH-2R (Macaca mulatta, UniProt Q8MJ88); assay: intracellular calcium (fura-2) in HEK293T cells transiently expressing rhesus MCH-2R; format: cell-based, rhesus monkey; conditions: read-out: EC50, increase in intracellular calcium levels
T1 construct: expressed in transfected cells; host or cells: HEK293T
Text: The entire coding sequence of rhesus MCH-2R was cloned into BamHI-NotI site of pEF1/V5-His C plasmid vector (Invitrogen). The resultant construct was transfected into HEK293T cells using LipofectAmine PLUS (Life Technologies, Rockville, Md.) according to the manufacture's instructions. Human embryonic kidney cells constitutively expressing SV40 large T antigen (HEK-293T) were maintained in Dulbecco's modified Eagle medium (Life Technologies) supplemented with 10% fetal bovine serum, 100 units/ml penicillin-G and 100 μg/ml streptomycin at 37° C. with 5% CO2 in a humidified atmosphere.
The intracellular calcium ion concentration ([Ca^2+]i) was measured fluorometrically using a Ca^2+-sensitive fluorescent dye, fura-2. […] Two point five microliters of dimethyl sulfoxide (DMSO) solution of MCH (Peptide Institute, Osaka, Japan) or [Phe^13, Tyr^19]-MCH (Bachem, Bubendorf, Switzerland) was added into the cell suspension, and fluorescent intensity at an emission wavelength of 500 nm and excitation wavelengths of 340 and 380 nm was monitored with a CAF-110 intracellular ion analyzer (JASCO, Tokyo, Japan). Data were analyzed using the software GraphPad Prism Version 3.0 (GraphPad Software, Inc., San Diego, Calif., USA).

rhesus MCH-2R [2] = molecular target: T1, rhesus MCH-2R; assay: inhibition of [125I]-[Phe13, Tyr19]-MCH binding to rhesus MCH-2R on HEK293T cells (filtration); parameters: species or system rhesus monkey; conditions: read-out: IC50, inhibition of [125I]-[Phe13, Tyr19]-MCH binding, 100 pM [125I]-[Phe13, Tyr19]-MCH, 30 minutes at 37° C.
Method: HEK293T cells transfected with pEF1/V5-HisC/MCH-2R plasmid were harvested by phosphate-buffered saline containing 2 mM EDTA 48 hours after transfection, and washed once with the assay buffer (Hanks' balanced salt solution containing 20 mM HEPES, 0.2% BSA and 100 μg/ml bacitracin, pH 7.4). The cells (4×10^5 cells/tube) were then incubated in 250 μl/tube of the same buffer with 100 pM [^125I]-[Phe^13, Tyr^19]-MCH for 30 minutes at 37° C. After the incubation, bound and free [^125I]-[Phe^13, Tyr^19]-MCH were separated by filtration using a Unifilter GF/B glass filter (Packard Instrument) presoaked with 0.3% polyethylenimine. The remaining radio activity on the filter was quantitated using a TopCount HTS (Packard instrument) with a Microscint 0 scintillation cocktail (Packard instrument). Specific binding was defined as the difference between total binding and nonspecific binding in the presence of 1 μM cold [Phe^13, Tyr^19]-MCH. Data were analyzed using GraphPad Prism Version 3.0.

human MCH-2R [3] = molecular target: T2, human MCH-2R (Homo sapiens, UniProt Q969V1); assay: membrane radioligand binding assay, transfected COS-7 cells, human MCH-2R; conditions: read-out: Binding (IC50), COS-7 membranes
T2 construct: expressed in transfected cells; host or cells: COS-7
Method: Membrane binding assays were performed on transiently-transfected COS-7 cells using human or ferret MCH-2R in the plasmid vector pCI-neo (Promega, Madison, Wis.), COS-7 cells were cultured in Dulbecco's modified Eagle medium (Gibco BRL, Rockville, Md.) with 10% heat inactivated fetal calf serum.
A suspension of 7×10^6 COS-7 cells were transfected with 20 μg of pCI-neo/MCH-2R plasmid by electroporation. (Strader, et al., 1987. Proc. Natl. Acad. Sci. USA 84, 4384–4388). Cells were harvested after 60–72 hours. Membranes were prepared from transient and stable transfectants by hypotonic lysis, frozen in liquid nitrogen, and stored at −80° C. (MacNeil, et al., 1994. Biochem. Biophys. Res. Commun. 198, 328–334.)
A binding assay was set up in 96 well plates. Total volume per binding assay point was 200 μL. Binding conditions were 50 mM Tris pH 7.4, 10 mM MgCl2, 2 mM EDTA 200 μg/mL bacitracin, 1 μM phosphoramidon, 2.5 to 5 μg protein, with and without 10 μM MCH unlabeled peptide as a competitor. Dose response curves were from 10 μM in 5 fold or 3-fold dilution series for 11 points. The mixture was shaken for 5 minutes on a platform shaker, and incubated at room temperature for 1 hour. Filter plates were presoaked in 1% PEI. […] 30 μL microscintillant was added per well and counted for 1.5–3 minutes in inverted format on Packard TopCount. […]

human MCH-2R [4] = molecular target: T2, human MCH-2R; assay: aequorin bioluminescence functional assay, human MCH-2R; format: cell-based; conditions: read-out: Function (EC50), aequorin HEK-293 cells
Text: The aequorin bioluminescence assay is a reliable test for identifying G-protein-coupled receptors which couple through the G protein subunit family consisting of Gq and G11 which leads to the activation of phospholipase C, mobilization of intracellular calcium, and activation of protein kinase C. (Ungrin, et al., Anal. Biochem. 1999. 272:34–42.)
For expression studies, HEK-293 cells stably expressing the aequorin reporter protein were transiently transfected with MCH-2R human or ferret expression plasmid or stable cell lines were derived (human MCH-2R). The assay was performed using a Luminoscan RT luminometer (Labsystems Inc., Gaithersburg, Md.).
293AEQ17/Aequorin cells (Button, et al., 1993. Cell Calcium 14, 663–671), were cultured for 72 hours and the apo-aequorin in the cells was charged for 1 hour with coelenterazine (10 μM) under reducing conditions (300 μM reduced glutathione) in ECB buffer (140 mM NaCl, 20 mM KCl, 20 mM HEPES-NaOH, pH 7.4, 5 mM glucose, 1 mM MgCl2, 1 mM CaCl2, 0.1 mg/mL bovine serum albumin). […] 100 μL of cell suspension (corresponding to 5×10^4 cells) was then injected into the test plate containing ligands, and the integrated light emission was recorded over 30 seconds, in 0.5-second units. 20 μL of lysis buffer (0.1% final Triton X-100 concentration) was then injected and the integrated light emission recorded over 10 seconds, in 0.5-second units. […]

Substance: Melanin-concentrating hormone [MCH]
- EC50 (rhesus MCH-2R [1]): 24 nM
- IC50 (rhesus MCH-2R [2]): 9.9 nM
- IC50 (human MCH-2R [3]): 10 nM
- EC50 (human MCH-2R [4]): 43 nM
